Molecular target: T1, Alpha-1,2-mannosidase, putative (BT_3773) (Bacteroides thetaiotaomicron) (UniProt Q8A193)
T1 sequence (whole entry): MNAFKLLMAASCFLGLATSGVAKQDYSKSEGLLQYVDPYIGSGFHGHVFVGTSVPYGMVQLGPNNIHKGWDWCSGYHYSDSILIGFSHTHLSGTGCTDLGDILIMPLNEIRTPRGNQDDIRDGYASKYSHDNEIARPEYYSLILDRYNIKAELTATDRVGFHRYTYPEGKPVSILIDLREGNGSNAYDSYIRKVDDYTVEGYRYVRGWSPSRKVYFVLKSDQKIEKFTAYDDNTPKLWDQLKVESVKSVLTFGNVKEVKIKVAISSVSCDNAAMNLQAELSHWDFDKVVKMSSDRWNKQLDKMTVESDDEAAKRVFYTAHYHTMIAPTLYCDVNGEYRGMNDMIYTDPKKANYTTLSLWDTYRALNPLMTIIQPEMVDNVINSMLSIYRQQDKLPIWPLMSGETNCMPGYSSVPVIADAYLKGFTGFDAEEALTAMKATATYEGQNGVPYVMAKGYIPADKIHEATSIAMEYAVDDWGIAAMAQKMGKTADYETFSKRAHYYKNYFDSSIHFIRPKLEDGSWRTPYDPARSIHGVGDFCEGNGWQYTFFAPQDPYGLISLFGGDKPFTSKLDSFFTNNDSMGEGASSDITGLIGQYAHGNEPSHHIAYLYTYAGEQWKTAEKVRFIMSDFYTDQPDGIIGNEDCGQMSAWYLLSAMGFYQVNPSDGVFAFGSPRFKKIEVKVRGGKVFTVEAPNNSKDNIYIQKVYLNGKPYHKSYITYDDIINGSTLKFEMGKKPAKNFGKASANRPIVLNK
Assay: Activity of Bacteroides thetaiotaomicron GH92 alpha-mannosidase GH92 alpha-mannosidase 3773 assessed as mannose release at 1 mM after 16 hrs by HPLC relative to untreated control after 16 hrs by HPLC
Assay type: protein assay

Activity: 100%
SMILES: OC[C@H]1O[C@H](O[C@@H]2[C@H](O)[C@@H](O)O[C@H](CO)[C@H]2O)[C@@H](O)[C@@H](O)[C@@H]1O

Source: ChEMBL document CHEMBL1250451, “Mechanistic insights into a Ca2+-dependent family of alpha-mannosidases in a human gut symbiont” (Nat Chem Biol, 2010)
